Measured values reported in patent publication US12091402B2 (Avilar Therapeutics, Inc., priority 2021, dated 2024).

Protein sequences, listed by entry. Tags and fused reporters are not part of them.
UniProt P07306, whole entry: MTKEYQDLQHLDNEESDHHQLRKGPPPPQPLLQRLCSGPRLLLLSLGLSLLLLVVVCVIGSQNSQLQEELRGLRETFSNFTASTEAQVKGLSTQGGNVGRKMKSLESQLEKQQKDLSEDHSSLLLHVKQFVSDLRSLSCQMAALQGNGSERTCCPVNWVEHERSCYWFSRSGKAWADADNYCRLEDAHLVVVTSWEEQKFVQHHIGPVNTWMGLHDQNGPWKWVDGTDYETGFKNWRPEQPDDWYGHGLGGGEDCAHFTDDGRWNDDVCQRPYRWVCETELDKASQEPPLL
UniProt P07307, whole entry partner: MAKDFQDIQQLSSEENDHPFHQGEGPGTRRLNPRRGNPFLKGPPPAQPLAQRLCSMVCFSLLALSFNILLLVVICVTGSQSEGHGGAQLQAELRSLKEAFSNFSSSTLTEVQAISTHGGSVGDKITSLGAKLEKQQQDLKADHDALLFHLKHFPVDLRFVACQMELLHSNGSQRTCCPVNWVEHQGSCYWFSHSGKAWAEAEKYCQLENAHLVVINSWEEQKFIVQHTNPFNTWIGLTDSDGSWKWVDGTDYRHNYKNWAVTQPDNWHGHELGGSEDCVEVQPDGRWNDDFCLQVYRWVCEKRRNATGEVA

Columns and labels:
[1] = target: ASGPR receptor on the cell surface (HepG2 cells) (Homo sapiens, UniProt P07306); test: Ternary complex formation assay (flow cytometry, HepG2); assay type: cell-based; details: read-out: Ternary Complex EC50, 100 nM AF488-labeled antibody, 1 hour at 4° C., numeric bounds
[2] = tested on: HepG2 cells; test: Cellular uptake assay of AF488-labeled antibody (HepG2); assay type: cell-based; details: read-out: Uptake Assay EC50, 100 nM AF488-labeled antibody, 37° C. for 6 hours, numeric bounds
[3] = target: ASGPR (Homo sapiens, UniProt P07306); test: Affinity to ASGPR by surface plasmon resonance (SPR); details: read-out: ASGPR SPR Binding: KD; Biacore 8K, 25° C.; class symbols

Compound | pEC50 [1] | pEC50 [2] | pKd [3]
O=C(N[C@H]1[C@H]2OC[C@](COCCOCCOCCOCCOCCOCCOCCNc3ccc([N+](=O)[O-])cc3[N+](=O)[O-])(O2)[C@H](O)[C@@H]1O)C(F)(F)F | < 5.00 | < 5.00 | –
OC[C@@]12CO[C@@H](O1)[C@H](Nc1c(C(F)(F)F)ccnc1Cl)[C@@H](O)[C@H]2O | – | – | 4.00 to 5.00

pEC50, pKd: −log10 of the molar value.
